The results in this text go back to PubChem BioAssay AID651821 (The Scripps Research Institute Molecular Screening Center, 2012).

Only a part is listed here, and it is no random draw. Calls of active or inactive are those of the source.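 Rule for the calls: active = inhibition above the plate cutoff, the mean of all test compounds on that plate plus 3 SD (cut at about 35% in these data); inactive = the rest.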

A short description of this assay: small molecules binding CAG repeat RNA – biochemical, fluorescence, primary screen (AID 651821).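 Note: 0% = DMSO alone and 100% = 100 µM mitoxantrone as full dye displacement; higher means more dye released from RNA so lower well fluorescence.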 To be noted: r(CAG) RNA repeat, TO-PRO-1 dye displacement fluorescence; at 3 µM; stronger effect = higher value.
For the compound `CCCOP(=S)(Nc1nc(N)cc(=O)[nH]1)OCCC`, the inhibition is inactive: 8.16%.

As to `COc1cc(C2NCCC3(OCCO3)C2(C)C)cc(OC)c1OC` (centres undefined), the inhibition was inactive: -6.17%.

For the compound `CCOP(=O)(Nc1cccc2ccccc12)OCC`, the inhibition was inactive: -5.62%.

Consider `O=C(OC1CN2CCC1CC2)c1ccc(Cl)cc1` (centres undefined), for which the inhibition is inactive: 1.36%.

Regarding `COc1cc(C(=O)NCC2(N3CCOCC3)CCCCC2)cc(Cl)c1OC(C)C`, the inhibition was inactive: -2.49%.

For `O=[As](O)(O)c1cccnc1`, the inhibition was inactive: -1.84%.

For the compound `CS(=O)(=O)c1ccc(Cl)c(NC(=O)COC(=O)C(O)(c2ccccc2)c2ccccc2)c1`, the inhibition is inactive: -1.53%.

`O=[As](O)(c1cccc(O)c1)c1cccc(O)c1`: the inhibition was inactive: -0.44%.

With `Cc1cccc(OCC(=O)OC2CN3CCC2CC3)c1` (centres undefined), the inhibition is inactive: -1.58%.

On to `O=[N+]([O-])c1cc(Oc2ccc([N+](=O)[O-])cc2C(F)(F)F)cc([N+](=O)[O-])c1`, for which the inhibition was inactive: 0.35%.

`COc1ccc(N/C(=N/P(=O)(N2CCOCC2)N2CCOCC2)N2CCOCC2)cc1`: the inhibition was inactive: -5.17%.

`Cc1c2c(nc3ccccc13)SC(C(Cl)Cl)C2` (centres undefined): the inhibition was inactive: 1.52%.

Regarding `O=C(OC1CN2CCC1CC2)C12CC3CC(CC(C3)C1)C2` (centres undefined), the inhibition is inactive: 0.7%.

Turning to `Cc1cc(=O)[nH]c(N[N+](=O)[O-])n1`, the inhibition is inactive: -0.97%.

Regarding `O=P1(N(CCCl)CCCl)Nc2ccccc2N1`, the inhibition was inactive: 2.98%.

Regarding `O=P1(N(CCCl)CCCl)OCCCN1CCCl` (centres undefined), the inhibition is inactive: 2.19%.

Turning to `COc1ccc2nc(NP(=O)(c3ccccc3)c3ccccc3)sc2c1`, the inhibition was inactive: -3.11%.

For the compound `COc1cc(I)ccc1[As](=O)(O)O`, the inhibition was inactive: 0.61%.

With `ClCCSc1nnc(-c2cccnc2)o1`, the inhibition was inactive: -1.32%.

In the case of `CC(C)c1ccc(OP(=O)(Nc2ccccn2)Oc2ccccc2F)cc1` (centres undefined), the inhibition is inactive: -3.01%.

As to `COC(=O)C1(C)COP(=O)(N2CCCCCC2)OC1` (centres undefined), the inhibition is inactive: 1.27%.

Consider `O=C(OC1CN2CCC1CC2)c1cccc2[nH]cnc12` (centres undefined), for which the inhibition was inactive: -6.53%.

Take `CCN(CC)C(=S)SC(NC=O)C(Cl)(Cl)Cl` (centres undefined): the inhibition was inactive: 2.28%.

For `CC(C)NC(=O)NP(=O)(Oc1ccccc1)Oc1ccccc1`, the inhibition is inactive: -3.3%.

On to `O=[As](O)(c1ccc(O)cc1)c1ccccc1O`, for which the inhibition was inactive: 4.84%.

With `C[As](=O)(O)c1cccc(C(=O)O)c1`, the inhibition was inactive: -1.17%.

On to `COc1cc(C(=O)NCC2(N3CCOCC3)CCCCC2)ccc1OCC(C)C`, for which the inhibition is inactive: -5.58%.

`O=[N+]([O-])c1ccc(-c2cc([N+](=O)[O-])c(O)c([N+](=O)[O-])c2)cc1`: the inhibition is inactive: 7.12%.

Consider `Cc1ccc(OP(=O)(Nc2ccc([N+](=O)[O-])cn2)Oc2ccc(C)cc2)cc1`, for which the inhibition was inactive: 3.84%.

With `[N-]=[N+]=NC1CCCCC1NC(=O)c1cc([N+](=O)[O-])cc([N+](=O)[O-])c1` (centres undefined), the inhibition is inactive: 3.13%.

For `Cc1ccc2nc3c(c(C)c2c1)CC(C(Cl)Cl)S3` (centres undefined), the inhibition is inactive: 7.34%.

Regarding `CCOC(=O)Nc1cccc([As](=O)(O)O)c1`, the inhibition was inactive: 0.24%.

In the case of `Cc1cc(SC(NC=O)C(Cl)(Cl)Cl)ncn1` (centres undefined), the inhibition is inactive: -1.67%.

As for `O=P(Nc1ccccn1)(c1cccc2ccccc12)c1cccc2ccccc12`, the inhibition is inactive: -2.71%.

In the case of `O=[N+]([O-])c1ccc(Nc2ccc(Oc3ccc([N+](=O)[O-])cc3[N+](=O)[O-])cc2)c([N+](=O)[O-])c1`, the inhibition is inactive: 3.63%.

As for `O=C(O)C(O)c1ccc(N(CCCl)CCCl)cc1` (centres undefined), the inhibition was inactive: 5.26%.

Consider `CCOC(=O)Nc1ccc([As](=O)(O)O)c(O)c1`, for which the inhibition was inactive: 1.7%.

On to `CC1CCNP(=O)(N(CCCl)CCCl)O1` (centres undefined), for which the inhibition was inactive: -0.78%.

For the compound `COP(=O)(OC)N1CC1c1ccccc1` (centres undefined), the inhibition is inactive: 2.86%.

With `CCCCOc1ccc(C(=O)NCC2(N3CCCCC3)CCCCC2)cc1OC`, the inhibition was inactive: -5.86%.

For the compound `Cc1cc(SC(NC(=O)c2ccccc2)C(Cl)(Cl)Cl)nc(C(C)C)n1` (centres undefined), the inhibition is inactive: 3.06%.

On to `O=C(OC1CN2CCC1CC2)c1cccc([N+](=O)[O-])c1` (centres undefined), for which the inhibition is inactive: -1.69%.

As for `CCOC(=O)c1ccc(NC(=O)C(C)(CCl)SC)cc1` (centres undefined), the inhibition is inactive: 1.24%.

On to `CCC(C)N(CC(C)C)C(=S)SC(NC(C)=O)C(Cl)(Cl)Cl` (centres undefined), for which the inhibition is inactive: -3.96%.

Consider `COP1(=S)c2c(C)nn(CCC#N)c2N=C(c2ccc(F)cc2)N1C` (centres undefined), for which the inhibition is inactive: -4.48%.

As to `COC(=O)C1(C)COP(=O)(N2CCCC2)OC1` (centres undefined), the inhibition was inactive: 2.32%.

Turning to `O=C(O)C(=O)c1ccc(N(CCCl)CCCl)cc1`, the inhibition was inactive: 6.53%.

Regarding `O=C(COc1ccccc1)OC1CN2CCC1CC2` (centres undefined), the inhibition was inactive: 2.23%.

For the compound `O=C(Nc1ccncc1[N+](=O)[O-])c1ccc([N+](=O)[O-])cc1[N+](=O)[O-]`, the inhibition is inactive: 4.36%.

The inhibition is the relative decrease from the control value, in per cent.
